Laboratory results published in PMC8308639, “Synthesis and Human Carbonic Anhydrase I, II, IX, and XII Inhibition Studies of Sulphonamides Incorporating Mono-, Bi- and Tricyclic Imide Moieties” (Pharmaceuticals, 2021).
Like-named read-outs stand apart in the source and are kept apart here.

Protein sequences, listed by entry. Tags and fused reporters are not part of them. Lines headed by an entry give the natural chain unless they say otherwise; changes in a name come on top.
UniProt P00915: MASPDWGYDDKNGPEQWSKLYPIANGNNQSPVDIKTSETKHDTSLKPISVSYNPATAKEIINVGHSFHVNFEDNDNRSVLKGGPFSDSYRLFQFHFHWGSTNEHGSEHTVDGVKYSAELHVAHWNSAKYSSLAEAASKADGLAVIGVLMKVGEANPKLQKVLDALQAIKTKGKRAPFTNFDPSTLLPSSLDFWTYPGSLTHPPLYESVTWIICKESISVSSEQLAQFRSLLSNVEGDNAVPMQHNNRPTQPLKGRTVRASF

Tests used:
hCA I = hCA I (Homo sapiens, UniProt P00915); assay: CA-catalysed CO2 hydration stopped-flow inhibition assay, hCA I
hCA II = hCA II (Homo sapiens, UniProt P00918); assay: CA-catalysed CO2 hydration stopped-flow inhibition assay, hCA II; details: read-out: Ki (nM) hCA II, mean ± standard error, three assays
[1] = read-out: Ki (nM) hCA I, stopped-flow CO2 hydration, mean ± standard error, three assays

| SMILES | Ki (hCA I; [1]) | Ki (hCA II) | Ki (hCA I) |
| --- | --- | --- | --- |
| NS(=O)(=O)c1ccc(CN2C(=O)c3c(Cl)c(Cl)c(Cl)c(Cl)c3C2=O)cc1 [Compound 7, 4-((4,5,6,7-Tetrachloro-1,3-dioxoisoindolin-2-yl) Methyl) Benzenesulphonamide] | 427 ± 31 nM | 5.2 ± 0.4 nM | – |
| NS(=O)(=O)c1cccc(N2C(=O)c3c(Cl)c(Cl)c(Cl)c(Cl)c3C2=O)c1 [Compound 9, 3-(4,5,6,7-tetrachloro-1,3-dioxoisoindolin-2-yl) benzenesulphonamide] | 444 ± 35 nM | – | – |
| NS(=O)(=O)c1ccccc1N1C(=O)c2c(Cl)c(Cl)c(Cl)c(Cl)c2C1=O [Compound 10, 2-(4,5,6,7-tetrachloro-1,3-dioxoisoindolin-2-yl) benzenesulphonamide] | – | 4520 ± 325 nM | – |
| NS(=O)(=O)c1ccc(N2C(=O)c3c(Cl)c(Cl)c(Cl)c(Cl)c3C2=O)c(F)c1 [Compound 11, 3-fluoro-4-(4,5,6,7-tetrachloro-1,3-dioxoisoindolin-2-yl) benzenesulphonamide] | 368 ± 15 nM | 3.4 ± 0.2 nM | – |
| NS(=O)(=O)c1ccc(N2C(=O)c3c(Cl)c(Cl)c(Cl)c(Cl)c3C2=O)c(Cl)c1 [Compound 12, 3-chloro-4-(4,5,6,7-tetrachloro-1,3-dioxoisoindolin-2-yl)benzenesulphonamide] | – | 4.9 ± 0.3 nM | 159 ± 12 nM |
| NS(=O)(=O)c1ccc(N2C(=O)c3c(Cl)c(Cl)c(Cl)c(Cl)c3C2=O)c(Br)c1 [Compound 13, 3-bromo-4-(4,5,6,7-tetrachloro-1,3-dioxoisoindolin-2-yl) benzenesulphonamide] | 281 ± 15 nM | 2.4 ± 0.1 nM | – |
